Results: patent publication US20260384443A1, “THIADIAZOLES AS GLUTAMINASE I INHIBITORS” (published 2026)

By UniProt entry, the sequences of proteins in these tests, tags left out. Residues count along the entry.
UniProt O94925, 55-669 limits assumed: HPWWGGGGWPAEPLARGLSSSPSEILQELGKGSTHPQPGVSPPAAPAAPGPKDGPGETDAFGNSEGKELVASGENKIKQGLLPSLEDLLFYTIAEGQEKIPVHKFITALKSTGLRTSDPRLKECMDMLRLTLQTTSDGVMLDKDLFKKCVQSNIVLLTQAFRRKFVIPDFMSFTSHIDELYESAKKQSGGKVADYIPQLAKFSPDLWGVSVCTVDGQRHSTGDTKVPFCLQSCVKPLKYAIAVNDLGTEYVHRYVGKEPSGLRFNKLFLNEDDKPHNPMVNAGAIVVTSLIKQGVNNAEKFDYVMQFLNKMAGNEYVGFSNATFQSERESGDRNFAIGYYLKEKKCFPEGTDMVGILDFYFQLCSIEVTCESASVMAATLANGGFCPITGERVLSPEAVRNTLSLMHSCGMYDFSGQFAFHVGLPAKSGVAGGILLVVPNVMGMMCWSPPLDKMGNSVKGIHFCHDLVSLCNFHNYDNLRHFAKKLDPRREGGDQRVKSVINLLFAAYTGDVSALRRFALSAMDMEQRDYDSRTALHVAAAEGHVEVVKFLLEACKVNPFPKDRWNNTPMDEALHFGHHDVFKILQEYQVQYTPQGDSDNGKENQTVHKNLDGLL
UniProt O94925, 73-669 limits assumed: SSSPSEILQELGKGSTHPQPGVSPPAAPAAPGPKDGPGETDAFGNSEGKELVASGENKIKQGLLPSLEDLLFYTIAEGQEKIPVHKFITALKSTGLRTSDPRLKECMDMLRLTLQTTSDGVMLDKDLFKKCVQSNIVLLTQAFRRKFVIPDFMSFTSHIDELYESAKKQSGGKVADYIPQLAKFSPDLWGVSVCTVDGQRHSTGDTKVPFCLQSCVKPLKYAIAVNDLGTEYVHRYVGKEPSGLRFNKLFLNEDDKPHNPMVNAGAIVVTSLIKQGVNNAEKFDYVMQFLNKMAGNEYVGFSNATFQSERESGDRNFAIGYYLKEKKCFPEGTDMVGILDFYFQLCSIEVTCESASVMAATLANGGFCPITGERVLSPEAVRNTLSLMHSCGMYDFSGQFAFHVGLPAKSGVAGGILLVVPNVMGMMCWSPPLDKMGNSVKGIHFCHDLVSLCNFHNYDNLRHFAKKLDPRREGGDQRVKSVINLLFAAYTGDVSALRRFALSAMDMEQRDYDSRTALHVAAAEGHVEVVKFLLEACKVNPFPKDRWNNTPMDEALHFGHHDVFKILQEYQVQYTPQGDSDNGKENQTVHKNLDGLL

Legend:
GLS1 [1] = target: T1, GLS1 (Homo sapiens, UniProt O94925); assay: GLS1 enzymatic assay (three-stage coupled endpoint assay: GLS1/GDH/diaphorase, resorufin fluorescence); conditions: read-out: Enzyme IC50
GLS1 [2] = target: T1, GLS1; assay: GLS1 cell assay: intracellular glutamate level in A549 cells (Glutamine/Glutamate-Glo); conditions: read-out: Cell IC50, 2 h compound pre-incubation, then 24 h with L-Gln

SMILES: CN1CCN(CC2CCC(C)(C)CC2)C[C@H]1CC(=O)Nc1nnc(N[C@@H]2CCN(c3cccnn3)C2)s1 (single isomer, unassigned) [Example 279]
- IC50 (GLS1 [1]): 31.2 nM
- IC50 (GLS1 [2]): 14.6 nM

SMILES: CC(C)Sc1ccccc1CN1CCC[C@@H](OCC(=O)Nc2nnc(N[C@@H]3CCN(c4cccnn4)C3)s2)C1 (single isomer, unassigned) [Example 107]
- IC50 (GLS1 [1]): 66.2 nM
- IC50 (GLS1 [2]): 4.1 nM

SMILES: COC(C(=O)Nc1nnc(N[C@@H]2CCN(c3cccnn3)C2)s1)C1CCN(Cc2ccccc2OC2CCC2)CC1 (stereo partly shown)
- IC50 (GLS1 [1]): 89.6 nM
- IC50 (GLS1 [2]): 16.7 nM

SMILES: CC(C)Oc1ccccc1SC1CCN(CCC(=O)Nc2nnc(N[C@@H]3CCN(c4cccnn4)C3)s2)CC1
- IC50 (GLS1 [1]): 29.4 nM
- IC50 (GLS1 [2]): 3.5 nM

SMILES: CC(C)Oc1ccccc1C(C)N1CCC(SCC(=O)Nc2nnc(N[C@@H]3CCN(c4cccnn4)C3)s2)CC1 (stereo partly shown)
- IC50 (GLS1 [1]): 27.4 nM
- IC50 (GLS1 [2]): 2 nM

SMILES: O=C(C[C@H]1CN(C2CCC3(CC2)CC3)CCO1)Nc1nnc(N[C@@H]2CCN(c3cccnn3)C2)s1 (single isomer, unassigned) [Example 252]
- IC50 (GLS1 [1]): 15.4 nM
- IC50 (GLS1 [2]): 6.4 nM

SMILES: O=C(CC1CCC2(CC1)CCN(Cc1ccc(Br)cn1)CC2)Nc1nnc(N[C@@H]2CCN(c3cccnn3)C2)s1
- IC50 (GLS1 [1]): 17.5 nM
- IC50 (GLS1 [2]): 23.8 nM

SMILES: O=C(C[C@@H]1CCN(Cc2cccc(OC(F)(F)F)c2)C1)Nc1nnc(N[C@@H]2CCN(c3cccnn3)C2)s1
- IC50 (GLS1 [1]): 47 nM
- IC50 (GLS1 [2]): 7.1 nM

SMILES: CC(C)(C1CCCCC1)N1CCO[C@H](CC(=O)Nc2nnc(N[C@@H]3CCN(c4cccnn4)C3)s2)C1 (single isomer, unassigned) [Example 153]
- IC50 (GLS1 [1]): 19.7 nM
- IC50 (GLS1 [2]): 1.2 nM

SMILES: C[C@H](c1cc(F)cc(F)c1)N1CCC[C@@H](CC(=O)Nc2nnc(N[C@@H]3CCN(c4cccnn4)C3)s2)C1 (single isomer, unassigned) [Example 241]
- IC50 (GLS1 [1]): 49.6 nM
- IC50 (GLS1 [2]): 5.6 nM

SMILES: CC1(C)CCC(N2CCOC(CC(=O)Nc3nnc(N[C@@H]4CCN(c5ccc(Cl)nn5)C4)s3)C2)CC1 (stereo partly shown)
- IC50 (GLS1 [1]): 65.8 nM
- IC50 (GLS1 [2]): 17.8 nM

SMILES: O=C(CC1CN(C2CCC3(CCC3)CC2)CCO1)Nc1nnc(N[C@@H]2CCN(c3cccnn3)C2)s1 (stereo partly shown)
- IC50 (GLS1 [1]): 36.6 nM
- IC50 (GLS1 [2]): 9 nM

SMILES: CC(C)Sc1ccccc1CN1CC2(CCCN(CC(=O)Nc3nnc(N[C@@H]4CCN(c5cccnn5)C4)s3)C2)C1
- IC50 (GLS1 [1]): 14.5 nM
- IC50 (GLS1 [2]): 1.7 nM

SMILES: O=C(Nc1nnc(N[C@@H]2CCN(c3cccnn3)C2)s1)[C@@H]1CCCN(Cc2ccc(OC(F)(F)F)cc2)C1
- IC50 (GLS1 [1]): 115 nM
- IC50 (GLS1 [2]): 24.6 nM

SMILES: CCO[C@@H](C(=O)Nc1nnc(N[C@@H]2CCN(c3cccnn3)C2)s1)C1CCN(Cc2ccc(OC(F)F)cc2)CC1 (single isomer, unassigned) [Example 230]
- IC50 (GLS1 [1]): 258 nM
- IC50 (GLS1 [2]): 33.5 nM

SMILES: COc1ccc(CN2CCC(CC(=O)Nc3nnc(N[C@@H]4CCN(c5cccnn5)C4)s3)CC2)nc1C(F)(F)F
- IC50 (GLS1 [1]): 19.9 nM
- IC50 (GLS1 [2]): 31.5 nM

SMILES: CCN1CCN(Cc2cccc(OC(F)(F)F)c2)C(CC(=O)Nc2nnc(N[C@@H]3CCN(c4cccnn4)C3)s2)C1 (stereo partly shown)
- IC50 (GLS1 [1]): 54.4 nM
- IC50 (GLS1 [2]): 16.3 nM

SMILES: Cc1cc(CN2CCC[C@@H](CC(=O)Nc3nnc(N[C@@H]4CCN(c5cccnn5)C4)s3)C2)cc(OC(F)F)c1
- IC50 (GLS1 [1]): 21.4 nM
- IC50 (GLS1 [2]): 6.1 nM

SMILES: Cc1cc(C)c(CN2CCC3(CCC(CC(=O)Nc4nnc(N[C@@H]5CCN(c6cccnn6)C5)s4)CC3)CC2)c(C)n1
- IC50 (GLS1 [1]): 43.7 nM
- IC50 (GLS1 [2]): 14.2 nM

SMILES: CC(C)Sc1ccc(CN2CCC(CC(=O)Nc3nnc(N[C@@H]4CCN(c5cccnn5)C4)s3)CC2)cc1
- IC50 (GLS1 [1]): 42.1 nM
- IC50 (GLS1 [2]): 9.3 nM

SMILES: CC(C)[C@H]1CC[C@H](N2CCO[C@H](CC(=O)Nc3nnc(N[C@@H]4CCN(c5cccnn5)C4)s3)C2)CC1 (single isomer, unassigned) [Example 245]
- IC50 (GLS1 [1]): 21.8 nM
- IC50 (GLS1 [2]): 2.7 nM

SMILES: CC(C)Sc1ccccc1CN1CCC[C@@H](OCC(=O)Nc2nnc(N[C@@H]3CCN(c4cccnn4)C3)s2)C1 (single isomer, unassigned) [Example 106]
- IC50 (GLS1 [1]): 87.3 nM
- IC50 (GLS1 [2]): 3.7 nM

SMILES: CC(C(=O)Nc1nnc(N[C@@H]2CCN(c3cccnn3)C2)s1)C1CCN(Cc2ccc(OC(F)(F)F)cc2)CC1 (stereo partly shown)
- IC50 (GLS1 [1]): 68.9 nM
- IC50 (GLS1 [2]): 8.1 nM

SMILES: CC(C)[C@H]1CC[C@H](N2CCO[C@H](CC(=O)Nc3nnc(N[C@@H]4CCN(c5cccnn5)C4)s3)C2)CC1 (single isomer, unassigned) [Example 247]
- IC50 (GLS1 [1]): 27.3 nM
- IC50 (GLS1 [2]): 6.6 nM

SMILES: Cc1cc(F)cc(CN2CC3(CCCN(CC(=O)Nc4nnc(N[C@@H]5CCN(c6cccnn6)C5)s4)C3)C2)c1
- IC50 (GLS1 [1]): 16.5 nM
- IC50 (GLS1 [2]): 3.1 nM

SMILES: O=C(CC1CC2(CO1)CN(Cc1cccc(OC(F)(F)F)c1)C2)Nc1nnc(N[C@@H]2CCN(c3cccnn3)C2)s1 (stereo partly shown)
- IC50 (GLS1 [1]): 23.2 nM
- IC50 (GLS1 [2]): 5.5 nM

SMILES: CC(C)[C@H]1CC[C@H](N2CCO[C@H](CC(=O)Nc3nnc(N[C@@H]4CCN(c5cccnn5)C4)s3)C2)CC1 (single isomer, unassigned) [Example 244]
- IC50 (GLS1 [1]): 29.8 nM
- IC50 (GLS1 [2]): 1.6 nM

SMILES: CC(C)Oc1cccc(CN2CCC(CC(=O)Nc3nnc(N[C@@H]4CCN(c5cccnn5)C4)s3)CC2)c1
- IC50 (GLS1 [1]): 34.6 nM
- IC50 (GLS1 [2]): 14.1 nM

SMILES: O=C(CC1CCN(Cc2ccc(OC(F)(F)F)cc2)CC1)Nc1nnc(N[C@@H]2CCN(c3cccnn3)C2)s1
- IC50 (GLS1 [1]): 40.1 nM
- IC50 (GLS1 [2]): 5.5 nM

SMILES: CC(C)(C1CCCCC1)N1CCOC(CC(=O)Nc2nnc(N[C@@H]3CCN(c4cccnn4)C3)s2)C1 (stereo partly shown)
- IC50 (GLS1 [1]): 28.1 nM
- IC50 (GLS1 [2]): 1.9 nM

SMILES: CN(c1nnc(NC(=O)C[C@@H]2CCCN(Cc3cc(F)cc(F)c3)C2)s1)[C@@H]1CCN(c2cccnn2)C1
- IC50 (GLS1 [1]): 51.4 nM
- IC50 (GLS1 [2]): 22.4 nM

SMILES: Cc1cc(CN2CCC[C@@H](CC(=O)Nc3nnc(N[C@@H]4CCN(c5cccnn5)C4)s3)C2)cc(OC(C)C)c1
- IC50 (GLS1 [1]): 30.7 nM
- IC50 (GLS1 [2]): 13.7 nM

SMILES: O=C(CC1CN(C2CCC3(CCCC3)CC2)CCO1)Nc1nnc(N[C@@H]2CCN(c3cccnn3)C2)s1 (stereo partly shown)
- IC50 (GLS1 [1]): 22.4 nM
- IC50 (GLS1 [2]): 5.6 nM

SMILES: CC(C)N1CCN(Cc2cccc(OC(F)F)c2)C(CC(=O)Nc2nnc(N[C@@H]3CCN(c4cccnn4)C3)s2)C1 (stereo partly shown)
- IC50 (GLS1 [1]): 56.4 nM
- IC50 (GLS1 [2]): 49.9 nM

SMILES: CC(C)Oc1ccccc1[C@@H](C)N1CCC(SCC(=O)Nc2nnc(N[C@@H]3CCN(c4cccnn4)C3)s2)CC1 (single isomer, unassigned) [Example 233]
- IC50 (GLS1 [1]): 30.9 nM
- IC50 (GLS1 [2]): 1.7 nM

SMILES: C[C@@H]1CN(CC(=O)Nc2nnc(N[C@@H]3CCN(c4cccnn4)C3)s2)C[C@H](C)N1Cc1ccc(OC(F)(F)F)cc1
- IC50 (GLS1 [1]): 121 nM
- IC50 (GLS1 [2]): 2.8 nM

SMILES: CC1(C)CCC(CN2CC3(COC(CC(=O)Nc4nnc(N[C@@H]5CCN(c6cccnn6)C5)s4)C3)C2)CC1 (stereo partly shown)
- IC50 (GLS1 [1]): 40.6 nM
- IC50 (GLS1 [2]): 58.2 nM

SMILES: Cc1ccccc1CN1CCC([C@H](C(=O)Nc2nnc(N[C@@H]3CCN(c4cccnn4)C3)s2)C(C)C)CC1 (single isomer, unassigned) [Example 225]
- IC50 (GLS1 [1]): 66.3 nM
- IC50 (GLS1 [2]): 20.1 nM

SMILES: O=C(C[C@H]1CN(C2CC3(CCCCC3)C2)CCO1)Nc1nnc(N[C@@H]2CCN(c3cccnn3)C2)s1 (single isomer, unassigned) [Example 255]
- IC50 (GLS1 [1]): 26.6 nM
- IC50 (GLS1 [2]): 5.7 nM

SMILES: O=C(CC1CCC2(CC1)CN(Cc1cccc(OC(F)F)c1)C2)Nc1nnc(N[C@@H]2CCN(c3cccnn3)C2)s1
- IC50 (GLS1 [1]): 31.8 nM
- IC50 (GLS1 [2]): 23.2 nM

SMILES: O=C(C[C@H]1CC2(CO1)CN(Cc1cccc(OC(F)(F)F)c1)C2)Nc1nnc(N[C@@H]2CCN(c3cccnn3)C2)s1 (single isomer, unassigned) [Example 81]
- IC50 (GLS1 [1]): 24.1 nM
- IC50 (GLS1 [2]): 6.3 nM
